Tests used:
Type in all cases: biochemical
[1] = biological target: T1, CDK5/p25 (Homo sapiens, UniProt Q00535); test: ADP-Glo Kinase Assay, CDK5/p25; details: 1 μM compound; ATP at apparent Km (12 μM)
T1 construct: purchased Millipore, Billerica, Mass., USA
Procedure: (§1) Testing of the compounds described in this invention was carried out using the ADP-Glo™ Kinase Assay from Promega Corporation (Madison, Wis., USA).
(§2) The ADP-Glo™ Kinase Assay is a luminescent ADP detection assay to measure kinase activity by quantifying the amount of ADP produced during a kinase reaction. The kinase assay is performed in kinase assay buffer (5 mM MOPS, pH 7.5, 5 mM MgCl2, 0.4 mM EDTA, 1.5 mM DTT). Test samples initially dissolved in DMSO at 10 mM were diluted with the assay buffer to 1000 nM. A 30 μL volume/well of a mixture of substrates containing ATP (final ATP concentration in each kinase assay was equal to its apparent ATP Km).
(§3) The assay was performed in two steps: first, after the kinase reaction, an equal volume of ADP-Glo™ Reagent was added to terminate the kinase reaction and deplete the remaining ATP. Second, the Kinase Detection Reagent was added to simultaneously convert ADP to ATP and allowed the newly synthesized ATP to be measured using a luciferase/luciferin reaction. The luminescent signal generated was proportional to the ADP concentration produced and was correlated with kinase activity.

The chains behind the UniProt entries cited, without tags or fusion partners.
UniProt Q00535, whole entry: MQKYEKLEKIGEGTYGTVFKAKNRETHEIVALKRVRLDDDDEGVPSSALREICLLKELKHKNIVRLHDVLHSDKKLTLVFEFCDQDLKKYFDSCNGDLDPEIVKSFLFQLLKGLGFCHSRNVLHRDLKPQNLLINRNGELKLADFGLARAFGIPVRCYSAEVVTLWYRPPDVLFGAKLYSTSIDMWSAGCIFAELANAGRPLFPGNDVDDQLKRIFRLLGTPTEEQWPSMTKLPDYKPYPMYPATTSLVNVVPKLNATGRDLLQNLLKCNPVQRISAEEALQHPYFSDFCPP
UniProt P50750, whole entry: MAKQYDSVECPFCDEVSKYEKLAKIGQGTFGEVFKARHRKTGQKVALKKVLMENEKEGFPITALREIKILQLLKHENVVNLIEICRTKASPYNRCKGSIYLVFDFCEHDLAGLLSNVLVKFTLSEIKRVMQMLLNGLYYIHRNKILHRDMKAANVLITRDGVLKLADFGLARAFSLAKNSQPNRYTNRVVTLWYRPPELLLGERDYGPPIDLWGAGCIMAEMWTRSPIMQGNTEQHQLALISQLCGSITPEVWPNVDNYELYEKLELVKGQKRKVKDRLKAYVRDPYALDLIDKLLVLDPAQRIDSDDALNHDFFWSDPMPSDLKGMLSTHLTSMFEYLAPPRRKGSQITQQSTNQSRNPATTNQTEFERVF

[2] = biological target: T2, CDK2/CyclinE (Homo sapiens, UniProt P24941); test: ADP-Glo Kinase Assay, CDK2/CyclinE; details: 1 μM compound; ATP at apparent Km (130 μM)
T2 construct: purchased Millipore, Billerica, Mass., USA
Procedure: as §1, §2, §3

[3] = biological target: T3, CDK9/CyclinT (Homo sapiens, UniProt P50750); test: ADP-Glo Kinase Assay, CDK9/CyclinT; details: 1 μM compound; ATP at apparent Km (26 μM)
T3 construct: purchased Proqinase, Freiburg, Germany
Procedure: as §1, §2, §3

CN1CC[C@H](c2c(O)cc(O)c3c(=O)cc(-c4ccccc4Cl)oc23)C(O)C1 (stereo partly drawn) [Flavopiridol, flavopyridol, reference compound] was tested, and the “% inhibition at 1 μM CDK5/p25” value [1] was 50%, the “% inhibition at 1 μM CDK2/CyclinE” value [2] was 68% and the “% inhibition at 1 μM CDK9/CyclinT” value [3] was 93%.

Source: patent publication US9745299B2, “Substituted tricyclic benzimidazoles as kinase inhibitors” (SELVITA SA, priority 2012, dated 2017)
